PubChem BioAssay (NCI)
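A five-concentration, 48-hour dose response in 96-well plates underlies each endpoint, interpolated linearly between surrounding concentrations. GI50 is the concentration that inhibits growth by half. TGI: total growth inhibition.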

Assays:
Experiment in all cases: NCI anticancer screen, dose series, 48 h; in the data active = GI50 below about 0.43 µM; inactive = the rest
[1] = test system: HCT-15 colon
[2] = test system: SW-620 colon
[3] = test system: 786-0 renal
[4] = test system: COLO 205 colon
[5] = test system: NCI-H322M lung
[6] = test system: NCI-H522 lung
[7] = test system: SK-MEL-2 melanoma
[8] = test system: OVCAR-3 ovarian
[9] = test system: NCI/ADR-RES ovarian
[10] = test system: ACHN renal
[11] = test system: NCI-H460 lung
[12] = test system: SNB-75 CNS
[13] = test system: HOP-92 NSCLC
[14] = test system: UACC-62 melanoma
[15] = test system: IGROV1 ovarian
[16] = test system: PC-3 prostate
[17] = test system: NCI-H226 lung
[18] = test system: HS 578T breast
[19] = test system: M14 melanoma
[20] = test system: MDA-MB-435
[21] = test system: HOP-62 NSCLC
[22] = test system: SK-OV-3 ovarian
[23] = test system: MOLT-4 leukemia
[24] = test system: TK-10 renal
[25] = test system: UACC-257 melanoma
[26] = test system: U251 CNS
[27] = test system: SNB-19 CNS
[28] = test system: CCRF-CEM leukemia
[29] = test system: DU-145 prostate
[30] = test system: SF-295 CNS
[31] = test system: CAKI-1 renal
[32] = test system: OVCAR-4 ovarian
[33] = test system: MCF7 breast
[34] = test system: RXF 393 renal
[35] = test system: SF-268 CNS
[36] = test system: SK-MEL-28 melanoma
[37] = test system: MALME-3M melanoma
[38] = test system: T-47D breast
[39] = test system: K-562 leukemia
[40] = test system: KM12 colon
[41] = test system: SR leukemia
[42] = test system: HL-60(TB) leukemia
[43] = test system: SF-539 CNS
[44] = test system: UO-31 renal
[45] = test system: A498 renal
[46] = test system: MDA-MB-231 breast
[47] = test system: SN12C renal
[48] = test system: NCI-H23 lung
[49] = test system: OVCAR-8 ovarian
[50] = test system: MDA-N
[51] = test system: SK-MEL-5 melanoma
[52] = test system: LOX IMVI melanoma
[53] = test system: EKVX NSCLC
[54] = test system: HCC-2998 colon
[55] = test system: RPMI-8226 leukemia
[56] = test system: HCT-116 colon
[57] = test system: A549 NSCLC
[58] = test system: OVCAR-5 ovarian
[59] = test system: BT-549 breast
[60] = test system: HT29 colon

NC(=O)CNc1ccc([As](=O)(O)O)cc1
> 100 µM: TGI [1] | TGI [2] | TGI [3] | TGI [4] | TGI [5] | TGI [6] | TGI [7] | TGI [8] | TGI [9] | TGI [10] | TGI [11] | TGI [12] | TGI [13] | TGI [14] | TGI [15] | TGI [16] | TGI [17] | TGI [18] | TGI [19] | TGI [20] | TGI [21] | TGI [22] | TGI [23] | TGI [24] | TGI [25] | TGI [26] | TGI [27] | TGI [28] | TGI [29] | TGI [30] | TGI [31] | TGI [32] | TGI [33] | TGI [34] | TGI [35] | TGI [36] | TGI [37] | TGI [38] | TGI [39] | TGI [40] | TGI [41] | TGI [42] | TGI [43] | TGI [44] | TGI [45] | TGI [46] | TGI [47] | TGI [48] | TGI [49] | TGI [50] | TGI [51] | TGI [52] | TGI [53] | TGI [54] | TGI [55] | TGI [56] | TGI [57] | TGI [58] | TGI [59] | TGI [60]
inactive: GI50 [1] > 100 µM | GI50 [2] > 100 µM | GI50 [3] > 100 µM | GI50 [4] > 100 µM | GI50 [5] > 100 µM | GI50 [6] > 100 µM | GI50 [7] > 100 µM | GI50 [8] > 100 µM | GI50 [9] > 100 µM | GI50 [10] > 100 µM | GI50 [11] > 100 µM | GI50 [12] > 100 µM | GI50 [13] > 100 µM | GI50 [14] > 100 µM | GI50 [15] > 100 µM | GI50 [16] > 100 µM | GI50 [17] > 100 µM | GI50 [18] > 100 µM | GI50 [19] > 100 µM | GI50 [20] > 100 µM | GI50 [21] > 100 µM | GI50 [22] > 100 µM | GI50 [23] 8.11 µM | GI50 [24] > 100 µM | GI50 [25] > 100 µM | GI50 [26] > 100 µM | GI50 [27] > 100 µM | GI50 [28] > 100 µM | GI50 [29] > 100 µM | GI50 [30] > 100 µM | GI50 [31] > 100 µM | GI50 [32] > 100 µM | GI50 [33] > 100 µM | GI50 [34] > 100 µM | GI50 [35] > 100 µM | GI50 [36] > 100 µM | GI50 [37] > 100 µM | GI50 [38] > 100 µM | GI50 [39] > 100 µM | GI50 [40] > 100 µM | GI50 [41] > 100 µM | GI50 [42] > 100 µM | GI50 [43] > 100 µM | GI50 [44] > 100 µM | GI50 [45] > 100 µM | GI50 [46] > 100 µM | GI50 [47] > 100 µM | GI50 [48] > 100 µM | GI50 [49] > 100 µM | GI50 [50] > 100 µM | GI50 [51] > 100 µM | GI50 [52] > 100 µM | GI50 [53] > 100 µM | GI50 [54] > 100 µM | GI50 [55] > 100 µM | GI50 [56] > 100 µM | GI50 [57] > 100 µM | GI50 [58] > 100 µM | GI50 [59] > 100 µM | GI50 [60] > 100 µM
